The record followed here is patent publication US4906655A, “Novel 1,2-cyclohexylaminoaryl amides useful as analgesic agents” (dated 1990).

This assay has as its system rat. Description: rat paw pressure test (analgesia). To be noted: dose required to produce 50% of the maximum possible analgesic effect, single experiment, six animals per dose level.

For the compound `CN(C(=O)Cc1cccc2c1COC2=O)[C@H]1CC[C@@]2(CCCO2)C[C@@H]1N1CCCC1` (single isomer, unassigned), the “Rat Paw Pressure MPE50 IV” value was determined as 0.1 mg/kg.

For `CN(C(=O)Cc1cccc2c1CCO2)[C@H]1CC[C@@]2(CCCO2)C[C@@H]1N1CCCC1` (single isomer, unassigned), the “Rat Paw Pressure MPE50 IV” value is 0.71 mg/kg.
